Source: paper PMC5372361 (Scientific Reports, 2017)

Amino acid sequences for entries named in this document (tags omitted). Residues count along the entry.
UniProt Q00960, 27-1482 limits assumed: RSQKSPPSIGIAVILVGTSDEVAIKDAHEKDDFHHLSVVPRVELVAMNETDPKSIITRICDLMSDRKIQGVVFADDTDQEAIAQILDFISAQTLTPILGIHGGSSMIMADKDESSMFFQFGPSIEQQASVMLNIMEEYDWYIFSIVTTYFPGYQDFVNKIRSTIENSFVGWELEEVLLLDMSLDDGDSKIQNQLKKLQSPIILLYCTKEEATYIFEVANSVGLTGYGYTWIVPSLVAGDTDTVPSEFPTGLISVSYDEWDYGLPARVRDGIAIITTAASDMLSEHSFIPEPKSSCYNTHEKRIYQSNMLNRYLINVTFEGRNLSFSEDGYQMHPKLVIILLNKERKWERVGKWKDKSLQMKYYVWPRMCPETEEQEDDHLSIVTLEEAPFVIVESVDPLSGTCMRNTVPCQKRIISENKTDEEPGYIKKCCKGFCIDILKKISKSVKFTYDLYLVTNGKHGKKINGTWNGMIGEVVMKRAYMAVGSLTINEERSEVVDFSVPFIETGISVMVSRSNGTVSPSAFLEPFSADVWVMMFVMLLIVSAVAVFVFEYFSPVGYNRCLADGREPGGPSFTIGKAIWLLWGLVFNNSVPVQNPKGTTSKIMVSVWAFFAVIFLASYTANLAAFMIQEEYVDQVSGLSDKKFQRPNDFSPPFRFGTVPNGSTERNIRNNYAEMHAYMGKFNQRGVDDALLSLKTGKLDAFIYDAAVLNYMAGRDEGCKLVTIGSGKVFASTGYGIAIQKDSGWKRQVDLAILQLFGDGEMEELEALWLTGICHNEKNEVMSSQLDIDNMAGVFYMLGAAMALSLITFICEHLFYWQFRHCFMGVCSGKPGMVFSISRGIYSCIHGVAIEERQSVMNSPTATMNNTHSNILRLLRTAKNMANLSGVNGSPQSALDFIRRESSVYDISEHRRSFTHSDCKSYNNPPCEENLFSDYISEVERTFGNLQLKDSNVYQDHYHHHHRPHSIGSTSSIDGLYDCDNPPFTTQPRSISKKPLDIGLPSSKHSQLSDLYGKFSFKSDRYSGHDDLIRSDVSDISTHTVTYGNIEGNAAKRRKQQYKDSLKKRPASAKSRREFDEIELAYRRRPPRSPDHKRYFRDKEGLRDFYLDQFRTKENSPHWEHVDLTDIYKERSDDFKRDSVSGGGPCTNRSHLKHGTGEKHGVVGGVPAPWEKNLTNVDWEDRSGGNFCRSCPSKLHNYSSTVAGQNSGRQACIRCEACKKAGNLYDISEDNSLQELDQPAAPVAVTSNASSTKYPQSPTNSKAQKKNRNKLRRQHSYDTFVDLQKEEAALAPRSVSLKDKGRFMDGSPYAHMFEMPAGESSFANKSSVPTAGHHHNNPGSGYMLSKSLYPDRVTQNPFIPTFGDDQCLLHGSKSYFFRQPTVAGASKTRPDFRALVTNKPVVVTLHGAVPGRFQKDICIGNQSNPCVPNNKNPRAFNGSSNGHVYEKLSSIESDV
UniProt P02550, whole entry: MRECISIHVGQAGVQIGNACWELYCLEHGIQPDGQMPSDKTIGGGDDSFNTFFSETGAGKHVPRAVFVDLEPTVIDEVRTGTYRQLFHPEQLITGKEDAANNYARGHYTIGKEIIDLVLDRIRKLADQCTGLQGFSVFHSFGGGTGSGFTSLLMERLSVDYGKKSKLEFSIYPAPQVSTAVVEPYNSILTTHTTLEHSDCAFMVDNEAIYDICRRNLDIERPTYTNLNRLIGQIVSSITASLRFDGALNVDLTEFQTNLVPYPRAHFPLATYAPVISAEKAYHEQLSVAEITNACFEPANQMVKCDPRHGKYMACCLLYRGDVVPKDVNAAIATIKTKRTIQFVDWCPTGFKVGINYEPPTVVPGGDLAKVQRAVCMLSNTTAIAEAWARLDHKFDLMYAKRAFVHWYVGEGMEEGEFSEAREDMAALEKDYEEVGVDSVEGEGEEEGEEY
UniProt P02554, whole entry: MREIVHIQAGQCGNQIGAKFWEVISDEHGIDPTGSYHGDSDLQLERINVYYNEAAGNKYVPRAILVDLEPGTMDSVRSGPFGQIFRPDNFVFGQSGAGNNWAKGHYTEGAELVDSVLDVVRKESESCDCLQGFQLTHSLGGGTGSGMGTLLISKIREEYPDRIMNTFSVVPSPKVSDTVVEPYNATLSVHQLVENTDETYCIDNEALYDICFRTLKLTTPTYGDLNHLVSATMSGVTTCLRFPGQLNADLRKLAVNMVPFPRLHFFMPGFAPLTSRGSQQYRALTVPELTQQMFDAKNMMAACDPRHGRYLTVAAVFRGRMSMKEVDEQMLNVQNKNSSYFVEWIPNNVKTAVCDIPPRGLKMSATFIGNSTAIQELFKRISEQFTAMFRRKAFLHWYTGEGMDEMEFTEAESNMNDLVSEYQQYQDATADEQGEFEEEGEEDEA
UniProt P22303, 32-617 isoform 2 limits assumed: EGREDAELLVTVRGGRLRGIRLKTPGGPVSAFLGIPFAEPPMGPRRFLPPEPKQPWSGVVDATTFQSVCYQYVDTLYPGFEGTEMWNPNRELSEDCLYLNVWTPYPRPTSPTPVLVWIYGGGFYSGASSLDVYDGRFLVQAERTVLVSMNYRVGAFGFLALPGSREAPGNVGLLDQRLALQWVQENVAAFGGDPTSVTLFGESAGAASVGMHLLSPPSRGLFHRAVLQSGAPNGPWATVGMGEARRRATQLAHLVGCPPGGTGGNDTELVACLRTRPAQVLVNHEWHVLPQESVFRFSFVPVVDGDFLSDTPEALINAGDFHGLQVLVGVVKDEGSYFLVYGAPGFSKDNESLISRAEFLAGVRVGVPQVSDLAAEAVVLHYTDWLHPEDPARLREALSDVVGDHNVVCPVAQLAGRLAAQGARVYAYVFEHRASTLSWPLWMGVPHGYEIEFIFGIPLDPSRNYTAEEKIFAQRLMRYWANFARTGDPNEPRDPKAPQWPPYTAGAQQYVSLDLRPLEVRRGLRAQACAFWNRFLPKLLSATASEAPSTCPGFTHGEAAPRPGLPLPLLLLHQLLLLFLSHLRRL
UniProt P81908, whole entry: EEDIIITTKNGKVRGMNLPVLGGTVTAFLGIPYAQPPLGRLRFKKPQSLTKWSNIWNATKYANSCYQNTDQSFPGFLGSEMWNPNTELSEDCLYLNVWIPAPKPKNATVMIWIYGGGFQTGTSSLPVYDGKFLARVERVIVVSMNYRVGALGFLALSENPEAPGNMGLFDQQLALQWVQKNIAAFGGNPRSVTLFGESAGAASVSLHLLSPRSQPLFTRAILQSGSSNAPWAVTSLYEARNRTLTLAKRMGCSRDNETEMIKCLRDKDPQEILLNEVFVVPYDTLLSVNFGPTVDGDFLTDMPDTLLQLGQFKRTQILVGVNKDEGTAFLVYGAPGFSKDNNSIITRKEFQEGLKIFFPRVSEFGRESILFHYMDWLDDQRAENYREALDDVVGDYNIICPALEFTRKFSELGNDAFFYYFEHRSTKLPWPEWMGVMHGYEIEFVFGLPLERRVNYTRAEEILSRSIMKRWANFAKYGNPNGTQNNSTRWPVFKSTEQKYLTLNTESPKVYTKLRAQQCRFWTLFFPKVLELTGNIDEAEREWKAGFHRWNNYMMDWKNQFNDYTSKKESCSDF
UniProt Q29550, 19-566 limits assumed: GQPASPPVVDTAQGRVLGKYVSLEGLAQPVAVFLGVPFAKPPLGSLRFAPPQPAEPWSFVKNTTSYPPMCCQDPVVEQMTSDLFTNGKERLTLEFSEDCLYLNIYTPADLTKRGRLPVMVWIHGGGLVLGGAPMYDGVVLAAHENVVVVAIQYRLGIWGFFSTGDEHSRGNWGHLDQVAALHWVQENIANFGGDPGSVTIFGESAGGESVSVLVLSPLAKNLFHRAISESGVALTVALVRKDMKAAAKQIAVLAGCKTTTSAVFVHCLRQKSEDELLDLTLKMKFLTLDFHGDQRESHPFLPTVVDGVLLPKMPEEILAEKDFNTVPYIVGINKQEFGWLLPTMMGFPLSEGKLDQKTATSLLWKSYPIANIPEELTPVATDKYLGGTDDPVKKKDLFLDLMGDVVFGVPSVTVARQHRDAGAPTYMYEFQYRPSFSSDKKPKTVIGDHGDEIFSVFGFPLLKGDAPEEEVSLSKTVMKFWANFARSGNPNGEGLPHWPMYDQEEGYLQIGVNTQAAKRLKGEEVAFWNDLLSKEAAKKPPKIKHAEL

Key:
[1] = biological target: MK-801 binding (intrachannel) site of NMDA receptor (Rattus norvegicus, UniProt P35439); assay: Radioligand binding, competition with [3H]MK-801; conditions: rat hippocampal membranes; for IC50: read-out: [3H]МК-801, IC50
[2] = biological target: ifenprodil binding site of NMDA receptors containing NR2B subunits (Rattus norvegicus, UniProt P35439+Q00960); assay: Radioligand binding, competition with [3H]ifenprodil; conditions: rat hippocampal membranes; for IC50: read-out: [3H]ifenprodil, IC50
tubulin = tubulin (Sus scrofa, UniProt P02550+P02554); assay: Tubulin polymerization to microtubules (absorbance at 355 nm); type: biochemical; conditions: at 100 μM of compound; 100% = vehicle control (10% DMSO)
human erythrocyte AChE = human erythrocyte AChE (Homo sapiens, UniProt P22303); conditions: for inhibition % at 20 μM, AChE: 20 μM of compound; for IC50: read-out: IC50 ± SEM, AChE, human erythrocyte AChE, pH 7.5, 25 °C, 10 min pre-incubation
equine serum BChE = equine serum BChE (Equus caballus, UniProt P81908); conditions: read-out: IC50 ± SEM, BChE, pH 7.5, 25 °C, 10 min pre-incubation
porcine liver CaE = porcine liver CaE (Sus scrofa, UniProt Q29550); assay: In vitro CaE inhibition (4-nitrophenyl acetate hydrolysis); conditions: for inhibition % at 20 μM, CaE: 20 μM of compound; for IC50: read-out: IC50 ± SEM, CaE, porcine liver CaE, pH 8.0, 25 °C
[3] = test system: SH-SY5Y neuroblastoma cells; assay: Ionomycin-induced toxicity in SH-SY5Y neuroblastoma cells (MTT test); conditions: 24 h; for cell survival under ionomycin: 1 μM of compound, 3 μM ionomycin, MTT; for effect on cell survival (MTT test) in the absence of ionomycin: studied concentrations (0.1 and 1 μM)
BChE = BChE (Equus caballus, UniProt P81908)
isolated mitochondria = conditions: cited from earlier work

| SMILES | % of [3H]МК-801 blockade at 100 μM of compound [1] [%] | IC50 [1] [µM] | % of [3H]ifenprodil blockade at 100 μM of compound [2] [%] | IC50 [2] [µM] | (dA355/dt)max, % of control (tubulin) [%] | inhibition % at 20 μM, AChE (human erythrocyte AChE) [%] | IC50 (human erythrocyte AChE) [µM] | IC50 (equine serum BChE) [µM] | inhibition % at 20 μM, CaE (porcine liver CaE) [%] | IC50 (porcine liver CaE) [µM] | cell survival under ionomycin [3] [%] | effect on cell survival (MTT test) in the absence of ionomycin [3] | Ki (BChE) [µM] | effect on calcium-induced swelling of isolated mitochondria (isolated mitochondria) |
| --- | --- | --- | --- | --- | --- | --- | --- | --- | --- | --- | --- | --- | --- | --- |
| CC12CC3CC(C)(C1)CC(NCC(O)Cn1c4ccc(Br)cc4c4cc(Br)ccc41)(C3)C2 (stereo not drawn) | 33.8 ± 3.5 | > 100 | 67.6 ± 5.8 | 31.5 | 104 ± 24 | 6.1 | > 20 | 55.4 | – | – | – | – | – | – |
| Cc1ccc2c(c1)c1c(n2CC(O)CNC23CC4CC(C)(CC(C)(C4)C2)C3)CCCC1 (stereo not drawn) | 18.3 ± 2.0 | > 100 | 31.4 ± 3.1 | > 100 | 182 ± 16 | 2.2 | > 20 | 33 | 12.3 | > 20 | – | – | – | – |
| CC12CC3CC(C)(C1)CC(NCC(O)Cn1c4ccc(Cl)cc4c4cc(Cl)ccc41)(C3)C2 (stereo not drawn) | 72.8 ± 6.8 | 22.4 | 71.4 ± 5.7 | 14.6 | 101 ± 15 | 4.0 | > 20 | 40.7 | – | – | – | – | – | – |
| Cc1ccc2c(c1)c1c(n2CC(O)CNC23CC4CC(CC(C4)C2)C3)CCC(C)C1 (stereo not drawn) | 29.3 ± 6.4 | > 100 | 67.2 ± 7.3 | 8.1 | 158 ± 19 | 7.1 | > 20 | 9.17 | 20.0 | > 20 | – | – | – | – |
| Cc1ccc2c(c1)c1c(n2CC(O)CNC23CC4CC(C)(CC(C)(C4)C2)C3)CCC(C)C1 (stereo not drawn) | 65.2 ± 5.3 | 19.5 | 71.4 ± 6.5 | 10.3 | 133 ± 14 | 7.3 | > 20 | 8.24 | 10.3 | > 20 | – | – | – | – |
| Cc1ccc2c(c1)c1c(n2CC(O)CNC23CC4CC(CC(C4)C2)C3)CCCC1 (stereo not drawn) | 0 ± 2.0 | > 100 | 51.6 ± 7.2 | 98.4 | 152 ± 12 | 3.9 | > 20 | 20 | 15.1 | > 20 | – | – | – | – |
| CC12CC3CC(C)(C1)CC(NCC(O)Cn1c4c(c5cc(F)ccc51)CCCC4)(C3)C2 (stereo not drawn) | 88.5 ± 9.0 | 27.4 | 87.2 ± 7.3 | 10.4 | – | 8.8 | > 20 | 5.43 | 16.5 | > 20 | 84 ± 4 | did not affect the MTT test parameters | – | – |
| OC(CNC12CC3CC(CC(C3)C1)C2)Cn1c2ccc(Br)cc2c2cc(Br)ccc21 (stereo not drawn) | 55.1 ± 4.9 | 79.4 | 85.3 ± 7.6 | 22.9 | 124 ± 17 | 5.5 | > 20 | 20.7 | 25.3 | > 20 | – | – | – | – |
| CC12CC3CC(C)(C1)CC(NCC(O)Cn1c4ccccc4c4ccccc41)(C3)C2 (stereo not drawn) | 68.5 ± 5.4 | 59.1 | 76.2 ± 6.6 | 21.3 | 249 ± 16 | – | – | 7.6 | 10.5 | > 20 | – | – | 2.11 | – |
| OC(CNC12CC3CC(CC(C3)C1)C2)Cn1c2c(c3ccccc31)CCCC2 (stereo not drawn) | 32.3 ± 3.0 | > 100 | 71.6 ± 8.3 | 82.5 | 155 ± 22 | 4.6 | > 20 | 7.29 | 17.9 | > 20 | – | – | – | – |
| OC(CNC12CC3CC(CC(C3)C1)C2)Cn1c2ccc(Cl)cc2c2cc(Cl)ccc21 (stereo not drawn) | 28.3 ± 1.8 | > 100 | 70.6 ± 7.1 | 21.8 | 100 ± 8 | 13.1 | > 20 | 23.7 | – | 50.1 | – | – | – | – |
| CC12CC3CC(C)(C1)CC(NCC(O)Cn1c4c(c5ccccc51)CCCC4)(C3)C2 (stereo not drawn) | 62.2 ± 6.3 | 14.2 | 58.4 ± 5.6 | 65.5 | 127 ± 10 | 5.1 | > 20 | 6.13 | 10.1 | > 20 | – | – | – | – |
| OC(CNC12CC3CC(CC(C3)C1)C2)Cn1c2ccccc2c2ccccc21 (stereo not drawn) | 83.5 ± 7.6 | 75.3 | 74.2 ± 6.8 | 8.2 | – | 2.8 | > 20 | 15.9 | 9.3 | > 20 | – | – | – | – |
| OC(CNC12CC3CC(CC(C3)C1)C2)Cn1c2c(c3cc(F)ccc31)CCCC2 (stereo not drawn) | 0 ± 2.0 | > 100 | 48.4 ± 5.2 | > 100 | 164 ± 18 | 4.9 | > 20 | 8.66 | 15.4 | > 20 | 89 ± 4 | did not affect the MTT test parameters | 4.62 | diminish, in the dose-dependent manner |
